1 compound from article PMC3483018 (Journal of Medicinal Chemistry, 2012) can be followed below.

The test concerns MV4–11 human FLT3-ITD positive AML cell line. As to the kind of experiment: Cell viability assay. The format is cell-based.

Broadly, the GI50 is the concentration at which growth is held to half of that of the control. Higher therefore signals lower sensitivity of the cells.

`Cc1nn(C)cc1-c1nc2c(N3CCN(Cc4ccc(Cl)cc4)CC3)c(Cl)cnc2[nH]1` [Compound 27e, 6-Chloro-7-(4-(4-chlorobenzyl)piperazin-1-yl)-2-(1,3-dimethyl-1H-pyrazol-4-yl)-3H-imidazo[4,5-b]pyridine] registered a GI50 of 291 nM.
